# Data taken from US20110281933A1, “METHODS AND COMPOSITIONS FOR THE MANAGEMENT OF CARDIOVASCULAR DISEASE WITH OLIGONUCLEOTIDES” (Saint Louis University, priority 2010, published 2011).
# Tested on: C57BL/6 mice on 1% cholesterol, 0.5% cholate diet
# Assay: Simvastatin and cholate diet induced liver damage (Example 8)
# Conditions: 50 mpk simvastatin vs saline
structure (smiles),measurement,value
CCC(C)(C)C(=O)O[C@H]1C[C@@H](C)C=C2C=C[C@H](C)[C@H](CC[C@@H]3C[C@@H](O)CC(=O)O3)[C@H]21 [simvastatin],reduction of hepatic A1p8b1 levels,~40%
